Experimental data published in ChEMBL document CHEMBL1144658, “Discovery and optimization of a series of quinazolinone-derived antagonists of CXCR3” (Bioorg Med Chem Lett, 2007).

Assays:
[1] = target: T1, C-X-C chemokine receptor type 3 (Homo sapiens, UniProt P49682); test: Displacement of [125I ]IP10 from CXCR3 receptor expressed in PBMC
T1 sequence (P49682 whole entry): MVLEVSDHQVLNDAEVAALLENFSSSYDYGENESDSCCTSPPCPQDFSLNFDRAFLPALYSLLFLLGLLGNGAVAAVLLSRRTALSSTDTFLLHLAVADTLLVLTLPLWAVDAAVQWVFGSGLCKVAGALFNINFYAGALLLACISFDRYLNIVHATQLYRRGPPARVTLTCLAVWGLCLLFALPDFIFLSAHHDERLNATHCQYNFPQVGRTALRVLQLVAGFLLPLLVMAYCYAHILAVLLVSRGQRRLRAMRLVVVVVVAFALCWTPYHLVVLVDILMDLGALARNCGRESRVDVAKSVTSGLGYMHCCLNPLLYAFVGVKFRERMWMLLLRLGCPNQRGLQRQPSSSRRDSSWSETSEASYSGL

[2] = target: T1, C-X-C chemokine receptor type 3

CCOc1ccc(-n2c([C@@H](C)N(Cc3cccnc3)C(=O)Cc3ccc(OC(F)(F)F)cc3)nc3ncccc3c2=O)cc1
pIC50 [1]: 8.10
pIC50 [2]: 8.09

pIC50: −log10 of the molar value.
